Assay results taken from PubChem BioAssay AID751 (NMMLSC, 2007).
This is a selection; strong and weak results do not stand in their true shares. The source made the active and inactive calls.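 Rule for the calls: active = inhibition of disassembly above about 33% (limit read from the data); inconclusive = likely self-fluorescent, control bead median signal at least 40; inactive = the rest.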

The compounds below were run on 26S proteasome (yeast, GFP-tagged, ATP-dependent disassembly) (assay: inhibitors of ATP-driven 26S proteasome dissociation, primary screen, biochemical, bead-based flow cytometry, GFP-tagged proteasome (AID 751;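 note: plate controls were ATP control with full disassembly for no effect and ATP-gamma-S intact proteasomes for full effect; higher percent means more bead fluorescence retained so stronger block of disassembly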)). Details: anti-FLAG beads, hits give high values, concentration not given here.

Compound	inhibition of disassembly
CP(=O)(Nc1ccccn1)Oc1ccccc1 (centres undefined)	inactive: -1.19%
Cc1nc2ccc3ccccc3c2o1.O=[N+]([O-])c1cc([N+](=O)[O-])c(O)c([N+](=O)[O-])c1	inactive: -3.34%
CCc1nc2c(n1)c1c(non1O)c1c2no[n+]1[O-]	inactive: 0.06%
O=P(Nc1nccs1)(c1ccccc1)c1ccccc1	inactive: 1.31%
Cc1ccccc1NP(C)(=O)Nc1ccccc1C	inactive: 0.18%
CP(=O)(Nc1ccc2c(c1)OCCO2)Oc1ccccc1 (centres undefined)	inactive: -0.15%
CN(C)CCOC(=O)C(O)(c1ccccc1)C1CCCCC1 (centres undefined)	inactive: 2.49%
Cc1ccc(C)c(NP(C)(=O)Oc2ccccc2)c1 (centres undefined)	inactive: -3.46%
CCOP1(=S)c2c(C)nn(CCC#N)c2N=C(c2ccccc2F)N1C (centres undefined)	inactive: -1.05%
Cc1nn(-c2ccccc2)c2c1P(=O)(N1CCOCC1)N(C)C(c1ccccc1)=N2 (centres undefined)	inactive: 3.95%
Clc1n[nH]nc1-c1nn[nH][15n]1	inactive: -0.81%
O=C(COc1ccccc1)OC1CN2CCC1CC2 (centres undefined)	inactive: 0.61%
COP1(=S)c2c(C)nn(CCC#N)c2N=C(c2ccc(F)cc2)N1C (centres undefined)	inactive: -0.23%
CP(=S)(Nn1cnnc1)Oc1ccccc1 (centres undefined)	inactive: -0.71%
